Test system: intact washed human platelets
Assay: [3H]PAF radioligand binding to intact washed human platelets after preincubation with plasma fractions (FIG. 1)
Settings: delipidated human serum albumin 0.5 mg/ml, n=3
Description: Washed intact human thrombocytes are protected with plasma fractions from healthy volunteers (n=3, means, ±1 S.D.). The plasma fractions were formed prior to the experiments using ultracentrifugation and dialysis in an outsourced laboratory. The HDL-fractions or antibodies against human serum albumin protected intact cells against fatty alcohols e.g. against albumin overloaded with fatty ligands. The FIG. 1 serves as representative model for isotonic liquids which can be used as starting materials, as eluates, as carriers for protection of cells. […] The nanometer size of the proteophospholiposomes is adapted also for the diagnostic procedures including diagnostic appliances of labeled proteophospholiposomes and/or of labeled HDL-type vesicles. The labeled proteoliposomes are formed layer by layer with fully specified methods and procedures are not limited therewith.
The thrombocytes are further preincubated with dialyzed, delipidated plasma proteins (0.36 mg/ml), with purified VLDL-fractions (0.9 mg/ml), with IDL (0.02 mg/ml), with HDL (0.5 mg/ml) or with delipidated HSA (0.25%). […] Thienodiazepines were established before as specific PAF-receptor antagonists (WEB40 nM). […]

“Delipidated human serum albumin: delipidated human serum albumin” was tested, and the “inhibition of [3H]PAF binding” value was “only a modest inhibition”.
